Where only a bound is given, the exact number is not on record here.

Sequences of proteins named here, by UniProt entry; tags and fusion partners are left off.
UniProt P21453, whole entry: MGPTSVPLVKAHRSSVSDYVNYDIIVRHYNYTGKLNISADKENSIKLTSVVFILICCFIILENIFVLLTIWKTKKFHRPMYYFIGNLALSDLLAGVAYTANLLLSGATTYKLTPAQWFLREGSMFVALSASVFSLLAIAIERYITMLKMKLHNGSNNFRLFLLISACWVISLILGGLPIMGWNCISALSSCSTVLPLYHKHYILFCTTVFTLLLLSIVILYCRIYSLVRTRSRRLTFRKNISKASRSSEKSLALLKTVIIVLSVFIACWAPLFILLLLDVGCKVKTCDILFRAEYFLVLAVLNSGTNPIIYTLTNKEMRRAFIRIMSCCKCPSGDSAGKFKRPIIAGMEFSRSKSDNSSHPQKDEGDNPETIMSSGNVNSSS
UniProt P32121, whole entry partner: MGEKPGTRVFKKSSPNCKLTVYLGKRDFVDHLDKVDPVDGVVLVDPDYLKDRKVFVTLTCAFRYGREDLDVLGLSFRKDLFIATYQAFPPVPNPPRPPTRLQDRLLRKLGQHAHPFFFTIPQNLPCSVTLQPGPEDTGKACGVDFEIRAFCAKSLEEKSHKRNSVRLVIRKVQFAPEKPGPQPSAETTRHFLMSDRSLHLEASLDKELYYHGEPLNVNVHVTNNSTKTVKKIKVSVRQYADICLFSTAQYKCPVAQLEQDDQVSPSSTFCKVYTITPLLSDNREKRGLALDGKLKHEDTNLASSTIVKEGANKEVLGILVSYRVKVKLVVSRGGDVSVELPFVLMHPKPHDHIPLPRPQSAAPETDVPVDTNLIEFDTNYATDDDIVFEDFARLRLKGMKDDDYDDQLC

Assay [1] addresses T1, human sphingosine-1-phosphate receptor 1 (S1P1) (Homo sapiens, UniProt P21453). In words: β-Arrestin2 recruitment assay (PathHunter), S1P1 CHO-K1 cells. Particulars: for hS1P1 B-arrestin2 SPAN: efficacy normalized to maximum efficacy of fingolimod. For orientation: Recruitment of arrestin is a read-out of receptor activation apart from second messengers.
In assay [2] the target is T1, human sphingosine-1-phosphate receptor 1 (S1P1). Description: Inhibition of cAMP production (HTRF cAMP HiRange), S1P1 CHO-K1 cells. The following applies: for hS1P1 CAMP SPAN: efficacy normalized to maximum efficacy of fingolimod. (In general: Cyclic AMP is a second messenger, typically raised through Gs and lowered through Gi signalling.)

For the compound `CC(C)n1ccc2cc(-c3nc(-c4ccccc4C(F)(F)F)cs3)ccc21`, the “hS1P1 B-arrestin2 SPAN” value in assay [1] is given as under 75. Besides, the “hS1P1 B-arrestin2 pEC50” value in assay [1] (β-arrestin2 recruitment, S1P1) is recorded as under 5. In assay [2], the “hS1P1 CAMP SPAN” value is listed as over 75. Further, the “hS1P1 CAMP pEC50” value in assay [2] (inhibition of cAMP production, S1P1) is recorded as under 6.5.
Turning to `CC(C)n1nnc2cc(-c3ncc(-c4ccccc4C(F)(F)F)s3)ccc21`, the “hS1P1 B-arrestin2 SPAN” value in assay [1] (β-arrestin2 recruitment) is on record as under 75. In assay [1] (β-arrestin2 recruitment, potency), the “hS1P1 B-arrestin2 pEC50” value is listed as under 5. The “hS1P1 CAMP SPAN” value in assay [2] (inhibition of cAMP production) was under 75. Further, the “hS1P1 CAMP pEC50” value in assay [2] (inhibition of cAMP production, potency) is under 6.5.

The values are drawn from patent publication US20230114241A1, “METHODS OF TREATING EPILEPSY USING THE SAME” (Trevena, Inc., priority 2019, published 2023).
